The values below are quoted from earlier work in US20100226886A1, “Combinations of MTP Inhibitors with Cholesterol Absorption Inhibitors or Interferon for Treating Hepatitis C” (priority 2007, published 2010).

For this series the following is noted: animal studies.

For `NC(=O)c1ncn([C@@H]2O[C@H](CO)[C@@H](O)[C@H]2O)n1` [ribavirin], the developmental toxicity result is “causes birth defects”.
